{"source": "patent US20240261426A1", "about": "“CONJUGATES COMPRISING PHOSPHOANTIGENS AND THEIR USE IN THERAPY” (BYONDIS B.V., priority 2021, published 2024)", "system": "NK-cells", "experiment": "Functional assay with pretreated HER2-positive cell lines: NK-cell activation", "type": "cell-based, human"}
{"substance": "trastuzumab: Anti-Her2 MoAb", "values": [{"measurement": "activation of NK-cells, in words", "setting": "preincubated HCT-116 cells", "result": "did not display notable NK-cell activation"}, {"measurement": "activation of NK-cells, in words", "setting": "pretreated BT-474, SK-BR-3 and SK-OV-3 cells", "result": "also activated NK-cells"}]}
